Test results published in patent US7652067B2, “Aqueous compositions containing monoester salts” (Millenium Specialty Chemicals, Inc., priority 2006, dated 2010).

Assay: Solubilization of hydrophobic organic compound in aqueous sodium monomenthyl glutarate (Na-MMG)
Conditions: MMG neutralised with 8.8% aqueous sodium bicarbonate

concentration of hydrophobic compound in clear, homogeneous solution in aqueous Na-MMG: ~1.25%
Structure (SMILES): Cc1c(C)c2c(c(C)c1O)CCC(C)(CCCC(C)CCCC(C)CCCC(C)C)O2 (stereo not drawn) [α-tocopherol]
